# Binding of CDR-mutated scFvs to a peptide of the spike HR2 region

Values reported by Li et al. 2023, doi:10.1038/s41467-023-39022-2 (FLAb copy).

The target is the same throughout: PDVDLGDISGINAS, from the HR2 region of SARS-CoV-2 spike.

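The parent was found by panning a naive human phage display library on the peptide. Designed CDR sequences, proposed from the first random library and measured here. Group labels follow the data file (Ctrl: baseline library sampled from a position-specific scoring matrix, with some repeated check sequences; Rand: our label for a block that the file lists under HC and that is probably the random mutants of the ten best first-round binders; GP: Gaussian process model; GPLM: also part of the Gaussian process libraries; HC: hill climbing; Gen: genetic algorithm; Gibbs: Gibbs sampling; a sequence that several methods proposed may carry one label only). The scFvs were displayed on barcoded MATa yeast, the peptide on MATalpha yeast. Pairs that bind mate more often; barcode pairs of the diploids are counted by sequencing. Read counts were normalised to the haploid input and turned into Kd by a linear fit to BCL2-family pairs of known affinity, for each replicate. The assay was run in six technical replicates.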

Each scFv is VH, a (GGGGS)3 linker, VL, as in the parent Ab-14, and differs from it in the CDRs of the heavy chain only.
VH: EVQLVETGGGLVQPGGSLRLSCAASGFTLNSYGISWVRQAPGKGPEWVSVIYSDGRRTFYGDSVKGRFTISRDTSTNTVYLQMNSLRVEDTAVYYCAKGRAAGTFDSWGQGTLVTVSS
VL: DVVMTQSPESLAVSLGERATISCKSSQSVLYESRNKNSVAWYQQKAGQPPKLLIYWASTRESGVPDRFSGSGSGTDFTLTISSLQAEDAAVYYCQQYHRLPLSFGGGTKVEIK

Variants are written as CDR1, CDR2 and CDR3 of the heavy chain (limits as in the source). Parent: GFTLNSYGIS, VIYSDGRRTFYGDSVK, GRAAGTFDS. This list holds designs with at most six substitutions. The Kd shown is the geometric mean over detected replicates; a lower Kd is a better binder. Where no diploid with the target was found in any replicate, the entry reads "nd": below detection, most likely a poor binder, though not proof of it. Background: pairings of all heavy chain designs with three empty control strains gave a value in 1% of cases (median 120 nM, 5th percentile 7.0 nM). Values in that range, when seen in few replicates, are hard to tell from nonspecific mating. For each scFv, signals with the empty controls are counted beside the result. The range of this assay differs from that of the first round, and the authors advise against merging the two. In the paper, a design with two or fewer of six values counts as a poor binder. Some sequences occur more than once in the pool; their replicates are pooled. The parent sequence was in this pool as ten entries: three were never detected, three once, and four in most replicates, with averages from 2.2 nM to 240 nM.

The variant GFTINSYGIS, VIYSDGRRTFYGDSVR, GRAAGTFVS [Ctrl] showed 1.7 µM (2 of 6 replicates; controls 0 of 18).
The variant GFHLNSYGIS, VIYSDGRRTFYSDSVK, GKTAGTFDS [GPLM_Gibbs] showed 3.8 nM (6 of 6 replicates; controls 0 of 18).
The variant GFELNSYGIS, VIYSDGRRTFYTDSVK, GRVAGTFDS [GPLM_HC] showed 1.6 nM (6 of 6 replicates; controls 0 of 18).
The variant GFDLNSYGIS, VIYSDGRRTFYGDSVK, GRIAGTFWS [GP_HC] showed 110 nM (1 of 6 replicates; controls 2 of 18).
The variant GFTLNSYGIS, VIYSDGRRTFYSDSVK, GQVAGTFDS [GPLM_Gen] showed 1.1 nM (6 of 6 replicates; controls 1 of 18).
The variant GFSLNSYGIS, VIYSDGRRTFYIDSVK, GKEAGTFDS [GPLM_Gen] showed nd (0 of 6 replicates; controls 0 of 18).
The variant GFTLNSYGIS, VIMSDGRRTFYGDSVK, CRAAGTFDS [Ctrl] showed 760 nM (1 of 6 replicates; controls 0 of 18).
The variant GFSLNEYGIS, VIYSDGRRTFYGDSVK, GQAAGTFDQ [GPLM_Gen] showed nd (0 of 6 replicates; controls 0 of 18).
The variant GFDLNSYGIS, VIYSDGRRTFYDDSVK, GQKAGTFDS [GP_HC] showed nd (0 of 6 replicates; controls 0 of 18).
The variant GFDLNNYGVS, HIYSDGRRTFYGDEVK, GRAAGTFDS [Ctrl] showed nd (0 of 6 replicates; controls 1 of 18).
The variant GFTLNSYGIS, VIYSDGRRTFYSDSVK, GEAGGTFDV [GP_HC] showed 24 nM (6 of 6 replicates; controls 0 of 18).
The variant GFQLNEYGIS, VIYSDGRRTFYGDSVK, GEAAGTFDL [GP_Gibbs] showed 9.1 nM (6 of 6 replicates; controls 0 of 18).
The variant GFTLNSYGIS, VIYSDGRRTFYTDSVK, GMFAGTFDS [GP_HC] showed 100 nM (1 of 6 replicates; controls 1 of 18).
The variant GFTLNEYGIS, VIYSDGRRTFYADDVK, GRFAGTFDS [GP_HC] showed 1.2 nM (6 of 6 replicates; controls 0 of 18).
The variant GFELNSYGIS, VIYSDGKRTFYGDSVK, GRLAGTFDS [GP_Gibbs] showed 80 nM (5 of 6 replicates; controls 0 of 18).
The variant GFTLNSYGIS, VIYSDGRRTFYTDSVK, GRAAGIFDS [Ctrl] showed nd (0 of 6 replicates; controls 1 of 18).
The variant GFTLNEYGIS, VIYSDGRRTFYGDSVK, GRAAGTFDS [Ctrl+GPLM_Gen] showed 3.6 nM (6 of 12 replicates; controls 0 of 36).
The variant HFTLNSYGIS, VIYSDGRRTFYGDSVK, GRAAGTFDS [Ctrl] showed 80 nM (1 of 6 replicates; controls 1 of 18).
The variant GFTLNSYGIS, VIYSDGRRCSYRDSVK, GRPAGTFPS [Ctrl] showed nd (0 of 6 replicates; controls 0 of 18).
The variant GFELNEYGIS, VIYSDGRRTFYMDSVK, GRQAGTFDS [GP_Gibbs] showed 2.2 nM (6 of 6 replicates; controls 0 of 18).
The variant GFTLDSYGIS, VIYSDGRRTFYTDSVK, GRAAGTALH [Rand] showed nd (0 of 6 replicates; controls 0 of 18).
The variant CFKPNSYGIS, VIYSDGRRTFYGDNVV, GRAAGTFDS [Ctrl] showed nd (0 of 6 replicates; controls 0 of 18).
The variant GFTLNEYGIS, VIYSDGRRTFYCDDVK, GRTAGTFDS [GP_HC] showed 1.9 nM (6 of 6 replicates; controls 1 of 18).
The variant GQTLNSYGIS, VIYSDGRRTFYGDSVK, GLAAGTFDS [Ctrl] showed 150 nM (1 of 6 replicates; controls 0 of 18).
The variant GFTLNDYGIS, VIYSDGRRTFYGDSVK, GRAAGTFCS [Ctrl] showed 330 nM (4 of 6 replicates; controls 0 of 18).
The variant GFELNSYGIS, VIYSDGRRTFYQDSVK, GKVAGTFDS [GP_Gen] showed 1.3 nM (6 of 6 replicates; controls 0 of 18).
The variant GFSLNSYGIS, VIYSDGRRTFYSDDVK, GRTAGTFDS [GPLM_Gen] showed 880 pM (6 of 6 replicates; controls 0 of 18).
The variant GFTLNEYGIS, VIYSDGRRTFYGDSVK, GQAAGTFDS [Ctrl+GPLM_Gen] showed 5.7 nM (12 of 12 replicates; controls 0 of 36).
The variant GFTLNSYGIS, VIYADGRRTFYGDKVK, GRAAGTFPQ [Ctrl] showed nd (0 of 6 replicates; controls 0 of 18).
The variant GFNLNSYGIS, VIYSDGLRTFYLDSVK, GRAAGTFDS [Ctrl] showed 55 nM (6 of 6 replicates; controls 1 of 18).
The variant GFTLNEYGIS, VIYSDGRRTFYTDSVK, GLFAGTFDS [GPLM_HC] showed 430 pM (6 of 6 replicates; controls 0 of 18).
The variant GFHLNSYGIS, VIYSDGRRTFYIDSVK, GREAGTFDS [GP_Gen] showed 17 nM (6 of 6 replicates; controls 0 of 18).